This passage reports IC50 results from patent US20260242365A1, “USES OF CERTAIN 1,4-OXAZEPANE-2-CARBOXAMIDES AS DPP1 INHIBITORS” (Insmed Incorporated, priority 2023, published 2026).

By UniProt entry, the sequences of proteins in these tests, tags left out. Residues count along the entry.
UniProt P53634, 395-463 limits assumed: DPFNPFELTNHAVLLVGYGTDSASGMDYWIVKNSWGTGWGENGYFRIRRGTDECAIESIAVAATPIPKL
UniProt P53634, 25-134 limits assumed: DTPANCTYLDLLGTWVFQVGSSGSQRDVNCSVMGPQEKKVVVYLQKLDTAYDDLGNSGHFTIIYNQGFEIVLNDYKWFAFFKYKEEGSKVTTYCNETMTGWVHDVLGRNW
UniProt P53634, 231-394 limits assumed: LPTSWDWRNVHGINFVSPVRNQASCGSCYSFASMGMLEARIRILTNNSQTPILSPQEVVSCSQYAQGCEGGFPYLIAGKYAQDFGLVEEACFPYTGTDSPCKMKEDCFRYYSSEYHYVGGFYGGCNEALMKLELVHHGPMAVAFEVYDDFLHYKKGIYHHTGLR

In general, IC50 refers to the concentration needed to halve the response being measured. Read a high IC50 as lower potency.

This experiment concerns the target T1, human DPP1 (Homo sapiens, UniProt P53634).
T1 construct: was first proteolytically processed into its mature form using recombinant human cathepsin L; purchased R&D Systems
The experiment can be described thus: Human DPP1 Enzyme IC50 Assay. Conditions: activated human DPP1 enzyme, H-Gly-Arg-AMC substrate. The format is biochemical. As to the method:
Recombinant human DPP1 enzyme (R&D Systems; Minneapolis, MN) was first proteolytically processed into its mature form using recombinant human cathepsin L (R&D Systems) in a buffer consisting of 20 mM citric acid pH 4.5, 150 mM NaCl, 1 mM EDTA and 10 mM DTT. Alternatively, a crude lysate of HL-60 cells (ATCC; Manassas, VA) is used as a source of human DPP1 enzyme in the assay. Lysate was prepared in 1% Triton X-100 in PBS at a concentration of 20,000 live cells per μL of lysis buffer and centrifuged at 16,000×g for 10 minutes at 4° C., after which supernatant was collected and flash-frozen in liquid nitrogen.
Test articles were applied to activated human DPP1 enzyme in Assay Buffer (25 mM MES pH 6.0, 50 mM NaCl, 5 mM DTT) in a total reaction volume of 125 μL. […] Substrate cleavage was measured for 90 minutes at 37° C., with fluorescence at Excitation/Emission 350/450 nm measured every 5 minutes. […] IC50 values for each compound were calculated via the XLFit (IDBS Version 5.3.1.3) Add-On to Microsoft Excel using the four parameter fit equation y=(A+ ((B−A)/(1+ ((C/x)^D)))), which appears as equation number 205 (4 Parameter Logistic Model or Sigmoidal Dose-Response Model) in XLFit. […]

Structures are written as SMILES.

In turn, `Cn1c(=O)oc2ccc(-c3ccc(C[C@@H](C#N)NC(=O)[C@@H]4CNCCCO4)c(F)c3)cc21` [INSM-204] showed an IC50 of 8.7 ± 0.02 nM.
